Reference: US8999940B2, “Analogues of glucose-dependent insulinotropic polypeptide (GIP) modified at N-terminal” (Ipsen Pharma S.A.S., priority 2008, dated 2015)

Legend:
[1] = molecular target: T1, human recombinant GIP receptor (Homo sapiens, UniProt P48546); test: In vitro hGIP receptor binding assay
T1 construct: expressed in transfected cells; host or cells: CHO-K1 clonal cells (membrane preparation)
T1 sequence (P48546 22-466): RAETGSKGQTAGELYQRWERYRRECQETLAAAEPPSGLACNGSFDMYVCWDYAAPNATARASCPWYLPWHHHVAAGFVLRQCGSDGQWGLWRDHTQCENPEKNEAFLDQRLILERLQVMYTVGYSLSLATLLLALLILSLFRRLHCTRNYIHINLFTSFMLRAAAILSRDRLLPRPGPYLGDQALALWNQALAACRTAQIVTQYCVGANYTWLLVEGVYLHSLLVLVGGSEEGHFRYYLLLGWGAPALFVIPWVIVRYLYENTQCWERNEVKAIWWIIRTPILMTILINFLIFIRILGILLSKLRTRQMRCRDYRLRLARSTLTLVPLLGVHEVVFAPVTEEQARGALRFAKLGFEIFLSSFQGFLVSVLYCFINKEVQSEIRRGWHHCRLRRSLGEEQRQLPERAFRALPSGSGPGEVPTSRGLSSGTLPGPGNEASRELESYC
Procedure: A. In Vitro hGIP Receptor Binding Assay […] The incubations were terminated by rapid filtration through GF/C filters (pre-soaked in 0.5% polyethylenimine) using a Brandel filtration manifold. Each tube and filter were then washed three times with 5-ml aliquots of ice-cold buffer. Specific binding was defined as the total radioligand bound minus that bound in the presence of 1000 nM GIP.

[2] = Rat plasma half-life assay; assay type: in vitro ADME; details: 37° C., LC-MS; for half-life at 0.1 mg/ml: read-out: Rat Plasma T½ (converted)
Procedure: (§1) B. Human and Rat Plasma Half-Life Assay
(§2) GIP peptide (50 μl 1 mg/ml) was added to 450 μl plasma (human or rat), vertexed briefly and incubated at 37° C. 50 μl was removed at various times, like at 0, 1, 2, 3, 4, 8, 24, 32, 48, 56, 72 hours, mixed with 5 μl formic acid and 150 μL acetonitrile in a microcentrifuge tube, vertexed, and centrifuged for 10 minutes at 10 K rpm. The supernatant was transferred to an injection vial and analyzed by LC-MS. The LC-MS system consisted of an API4000 mass spectrometer with an ESI probe. Positive ion mode and full scan detection were used. HPLC separation was carried out on a Luna 3μ. C8 (2), 2×30 mm column with a gradient from 90% A to 90% B in 10 minutes at a flow rate of 0.3 ml/min. Buffer A was 1% formic acid in water and buffer B was 1% formic acid acetonitrile.

[3] = Human plasma half-life assay; assay type: in vitro ADME; details: 37° C., LC-MS; for half-life at 0.1 mg/ml: read-out: Human Plasma T½ (converted)
Procedure: as §1, §2

Structure (SMILES) | Ki [1] | half-life at 0.1 mg/ml [2] | half-life at 0.1 mg/ml [3] | half-life ([2]; read-out: Rat Plasma T½) | half-life ([3]; read-out: Human Plasma T½)
CC[C@H](C)[C@H](NC(=O)[C@H](CCCCN)NC(=O)[C@H](CC(=O)O)NC(=O)[C@H](CCSC)NC(=O)[C@H](C)NC(=O)[C@@H](NC(=O)C1(NC(=O)[C@H](Cc2ccc(O)cc2)NC(=O)[C@H](CC(=O)O)NC(=O)[C@H](CO)NC(=O)[C@@H](NC(=O)[C@H](Cc2ccccc2)NC(=O)[C@@H](NC(=O)CNC(=O)[C@H](CCC(=O)O)NC(=O)CNC[C@@H](N)Cc2ccc(O)cc2)[C@@H](C)O)[C@@H](C)CC)CCCC1)[C@@H](C)CC)C(=O)N[C@@H](Cc1c[nH]cn1)C(=O)N[C@@H](CCC(N)=O)C(=O)N[C@@H](CCC(N)=O)C(=O)N[C@@H](CC(=O)O)C(=O)N[C@@H](Cc1ccccc1)C(=O)N[C@H](C(=O)N[C@@H](CC(N)=O)C(=O)N[C@@H](Cc1c[nH]c2ccccc12)C(=O)N[C@@H](CC(C)C)C(=O)N[C@@H](CC(C)C)C(=O)N[C@@H](C)C(=O)N[C@@H](CCC(N)=O)C(=O)N[C@@H](CCCCN)C(=O)NCC(=O)N[C@@H](CCCCN)C(=O)N[C@@H](CCCCN)C(=O)N[C@@H](CC(N)=O)C(=O)N[C@@H](CC(=O)O)C(=O)N[C@@H](Cc1c[nH]c2ccccc12)C(=O)N[C@@H](CCCCN)C(=O)N[C@@H](Cc1c[nH]cn1)C(=O)N[C@@H](CC(N)=O)C(=O)N[C@H](C(=O)NC1(C(=O)N[C@@H](CCC(N)=O)C(=O)O)CCCC1)[C@@H](C)CC)C(C)C [Example 40, [Tyr^1-Ψ-(CH2—NH)Gly^2, A5c^11, 41]hGIP(1-42)-OH] | 49 nM | 11.9 h | > 48 h |  | 
CCCC[C@H](NC(=O)[C@H](C)NC(=O)[C@@H](NC(=O)C1(NC(=O)[C@H](Cc2ccc(O)cc2)NC(=O)[C@H](CC(=O)O)NC(=O)[C@H](CO)NC(=O)[C@@H](NC(=O)[C@H](Cc2ccccc2)NC(=O)[C@@H](NC(=O)CNC(=O)[C@H](CCC(=O)O)NC(=O)C(C)(C)NC(=O)[C@@H](N)Cc2ccc(O)c(Cl)c2)[C@@H](C)O)[C@@H](C)CC)CCCC1)[C@@H](C)CC)C(=O)N[C@@H](CC(=O)O)C(=O)N[C@@H](CCCCN)C(=O)N[C@H](C(=O)N[C@@H](Cc1c[nH]cn1)C(=O)N[C@@H](CCC(N)=O)C(=O)N[C@@H](CCC(N)=O)C(=O)N[C@@H](CC(=O)O)C(=O)N[C@@H](Cc1ccccc1)C(=O)N[C@H](C(=O)N[C@@H](CC(N)=O)C(=O)N[C@@H](Cc1c[nH]c2ccccc12)C(=O)N[C@@H](CC(C)C)C(=O)N[C@@H](CC(C)C)C(=O)N[C@@H](C)C(=O)N[C@@H](CCC(N)=O)C(=O)N[C@@H](CCCCN)C(=O)NCC(=O)N[C@@H](CCCCN)C(=O)N[C@@H](CCCCN)C(=O)N[C@@H](CC(N)=O)C(=O)N[C@@H](CC(=O)O)C(=O)N[C@@H](Cc1c[nH]c2ccccc12)C(=O)N[C@@H](CCCCN)C(=O)N[C@@H](Cc1c[nH]cn1)C(=O)N[C@@H](CC(N)=O)C(=O)N[C@H](C(=O)N[C@H](C(=O)N[C@@H](CCC(N)=O)C(=O)N[C@@H](CS)C(=O)O)[C@@H](C)O)[C@@H](C)CC)C(C)C)[C@@H](C)CC [Example 85, (3Cl-Tyr^1, Aib^2, A5c^11, Nle^14, Cys^43)hGIP(1-43)-OH] | 0.83 nM | 11.5 h | 9.4 h |  | 
CCCC[C@H](NC(=O)[C@H](C)NC(=O)[C@@H](NC(=O)C1(NC(=O)[C@H](Cc2ccc(O)cc2)NC(=O)[C@H](CC(=O)O)NC(=O)[C@H](CO)NC(=O)[C@@H](NC(=O)[C@H](Cc2ccccc2)NC(=O)[C@@H](NC(=O)CNC(=O)[C@H](CCC(=O)O)NC(=O)C(C)(C)NC(=O)[C@@H](N)Cc2ccc(O)c(Cl)c2)[C@@H](C)O)[C@@H](C)CC)CCCC1)[C@@H](C)CC)C(=O)N[C@@H](CC(=O)O)C(=O)N[C@@H](CCCCN)C(=O)N[C@H](C(=O)N[C@@H](Cc1c[nH]cn1)C(=O)N[C@@H](CCC(N)=O)C(=O)N[C@@H](CCC(N)=O)C(=O)N[C@@H](CC(=O)O)C(=O)N[C@@H](Cc1ccccc1)C(=O)N[C@H](C(=O)N[C@@H](CC(N)=O)C(=O)N[C@@H](Cc1c[nH]c2ccccc12)C(=O)N[C@@H](CC(C)C)C(=O)N[C@@H](CC(C)C)C(=O)N[C@@H](C)C(=O)N[C@@H](CCC(N)=O)C(=O)N[C@@H](CCCCN)C(=O)NCC(=O)N[C@@H](CCCCN)C(=O)N[C@@H](CCCCN)C(=O)N[C@@H](CC(N)=O)C(=O)N[C@@H](CC(=O)O)C(=O)N[C@@H](Cc1c[nH]c2ccccc12)C(=O)N[C@@H](CCCCN)C(=O)N[C@@H](Cc1c[nH]cn1)C(=O)N[C@@H](CC(N)=O)C(=O)N[C@H](C(=O)N[C@H](C(=O)N[C@@H](CCC(N)=O)C(=O)N[C@@H](Cc1c[nH]cn1)C(=O)O)[C@@H](C)O)[C@@H](C)CC)C(C)C)[C@@H](C)CC [Example 64, (3Cl-Tyr^1, Aib^2, A5c^11, Nle^14, His^43)hGIP(1-43)-OH] | 0.76 nM |  |  |  | 
CC[C@H](C)[C@H](NC(=O)[C@H](CCCCN)NC(=O)[C@H](CC(=O)O)NC(=O)C1(NC(=O)[C@H](C)NC(=O)[C@@H](NC(=O)C2(NC(=O)[C@H](Cc3ccc(O)cc3)NC(=O)[C@H](CC(=O)O)NC(=O)[C@H](CO)NC(=O)[C@@H](NC(=O)[C@H](Cc3ccccc3)NC(=O)[C@@H](NC(=O)CNC(=O)[C@H](CCC(=O)O)NC(=O)C(C)(C)NC(=O)[C@@H](N)Cc3ccc(O)c(Cl)c3)[C@@H](C)O)[C@@H](C)CC)CCCC2)[C@@H](C)CC)CCCC1)C(=O)N[C@@H](Cc1c[nH]cn1)C(=O)N[C@@H](CCC(N)=O)C(=O)N[C@@H](CCC(N)=O)C(=O)N[C@@H](CC(=O)O)C(=O)N[C@@H](Cc1ccccc1)C(=O)N[C@H](C(=O)N[C@@H](CC(N)=O)C(=O)N[C@@H](Cc1c[nH]c2ccccc12)C(=O)N[C@@H](CC(C)C)C(=O)N[C@@H](CC(C)C)C(=O)N[C@@H](C)C(=O)N[C@@H](CCC(N)=O)C(=O)N[C@@H](CCCCN)C(=O)NCC(=O)N[C@@H](CCCCN)C(=O)N[C@@H](CCCCN)C(=O)N[C@@H](CC(N)=O)C(=O)N[C@@H](CC(=O)O)C(=O)N[C@@H](Cc1c[nH]c2ccccc12)C(=O)N[C@@H](CCCCN)C(=O)N[C@@H](Cc1c[nH]cn1)C(=O)N[C@@H](CC(N)=O)C(=O)N[C@H](C(=O)N[C@H](C(=O)N[C@@H](CCC(N)=O)C(=O)N[C@@H](Cc1c[nH]cn1)C(=O)O)[C@@H](C)O)[C@@H](C)CC)C(C)C [Example 63, (3Cl-Tyr^1, Aib^2, A5c^11, 14, His^43)hGIP(1-43)-OH] | 0.78 nM | 34.7 h | 43 h |  | 
CC[C@H](C)[C@H](NC(=O)[C@H](CCCCN)NC(=O)[C@H](CC(=O)O)NC(=O)[C@H](CCSC)NC(=O)[C@H](C)NC(=O)[C@@H](NC(=O)C1(NC(=O)[C@H](Cc2ccc(O)cc2)NC(=O)[C@H](CC(=O)O)NC(=O)[C@H](CO)NC(=O)[C@@H](NC(=O)[C@H](Cc2ccccc2)NC(=O)[C@@H](NC(=O)CNC(=O)[C@H](CCC(=O)O)NC(=O)CNC(=O)[C@@H](N)Cc2ccc(O)c(F)c2)[C@@H](C)O)[C@@H](C)CC)CCCC1)[C@@H](C)CC)C(=O)N[C@@H](Cc1c[nH]cn1)C(=O)N[C@@H](CCC(N)=O)C(=O)N[C@@H](CCC(N)=O)C(=O)N[C@@H](CC(=O)O)C(=O)N[C@@H](Cc1ccccc1)C(=O)N[C@H](C(=O)N[C@@H](CC(N)=O)C(=O)N[C@@H](Cc1c[nH]c2ccccc12)C(=O)N[C@@H](CC(C)C)C(=O)N[C@@H](CC(C)C)C(=O)N[C@@H](C)C(=O)N[C@@H](CCC(N)=O)C(=O)N[C@@H](CCCCN)C(=O)NCC(=O)N[C@@H](CCCCN)C(=O)N[C@@H](CCCCN)C(=O)N[C@@H](CC(N)=O)C(=O)N[C@@H](CC(=O)O)C(=O)N[C@@H](Cc1c[nH]c2ccccc12)C(=O)N[C@@H](CCCCN)C(=O)N[C@@H](Cc1c[nH]cn1)C(=O)N[C@@H](CC(N)=O)C(=O)NC1(C(=O)N[C@H](C(=O)N[C@@H](CCC(N)=O)C(=O)O)[C@@H](C)O)CCCC1)C(C)C [Example 39, (3F-Tyr^1, Gly^2, A5c^11, 41)hGIP(1-42)-OH] |  |  |  | > 72 h | > 72 h
